Measurements: US20170119925

System: T1, Gln-Pro-Gln-Gly-Leu-Ala-Lys (QPQGLAK) peptide crosslinker
T1 sequence: QPQGLAK

activated human recombinant MMP-13 gave a kcat/Km (s^-1M^-1), digestion kinetics by HPLC of 729 s^-1M^-1.
